Test [1] is described as follows: qHTS assay to identify small molecule agonists of the estrogen receptor alpha (ER-alpha) signaling pathway in the presence of an antagonist - cell viability counter screen (AID 1259386). Also: nearly all actives have a fitted effect of over 30% in size. The note with it: VM7Luc4E2 viability, CellTiter-Fluor fluorescence, 22 h; series mostly up to 92.4 µM. In short, it runs like this: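 VM7Luc4E2 cells (endogenous full-length ER-alpha, 4×ERE-luciferase) were held 5 days in phenol red-free medium with 10% charcoal-stripped FBS, plated, then given 10.0nM ICI-182,780 and compounds at 15 concentrations for 22hr at 37C; viability read by CellTiter-Fluor fluorescence.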
For orientation: In qHTS, concentration-response curves come from the screen itself.

The chains behind the UniProt entries cited, without tags or fusion partners. Where a name states a change or a piece, a line headed by the entry shows the natural chain unless it says otherwise.
UniProt P06401: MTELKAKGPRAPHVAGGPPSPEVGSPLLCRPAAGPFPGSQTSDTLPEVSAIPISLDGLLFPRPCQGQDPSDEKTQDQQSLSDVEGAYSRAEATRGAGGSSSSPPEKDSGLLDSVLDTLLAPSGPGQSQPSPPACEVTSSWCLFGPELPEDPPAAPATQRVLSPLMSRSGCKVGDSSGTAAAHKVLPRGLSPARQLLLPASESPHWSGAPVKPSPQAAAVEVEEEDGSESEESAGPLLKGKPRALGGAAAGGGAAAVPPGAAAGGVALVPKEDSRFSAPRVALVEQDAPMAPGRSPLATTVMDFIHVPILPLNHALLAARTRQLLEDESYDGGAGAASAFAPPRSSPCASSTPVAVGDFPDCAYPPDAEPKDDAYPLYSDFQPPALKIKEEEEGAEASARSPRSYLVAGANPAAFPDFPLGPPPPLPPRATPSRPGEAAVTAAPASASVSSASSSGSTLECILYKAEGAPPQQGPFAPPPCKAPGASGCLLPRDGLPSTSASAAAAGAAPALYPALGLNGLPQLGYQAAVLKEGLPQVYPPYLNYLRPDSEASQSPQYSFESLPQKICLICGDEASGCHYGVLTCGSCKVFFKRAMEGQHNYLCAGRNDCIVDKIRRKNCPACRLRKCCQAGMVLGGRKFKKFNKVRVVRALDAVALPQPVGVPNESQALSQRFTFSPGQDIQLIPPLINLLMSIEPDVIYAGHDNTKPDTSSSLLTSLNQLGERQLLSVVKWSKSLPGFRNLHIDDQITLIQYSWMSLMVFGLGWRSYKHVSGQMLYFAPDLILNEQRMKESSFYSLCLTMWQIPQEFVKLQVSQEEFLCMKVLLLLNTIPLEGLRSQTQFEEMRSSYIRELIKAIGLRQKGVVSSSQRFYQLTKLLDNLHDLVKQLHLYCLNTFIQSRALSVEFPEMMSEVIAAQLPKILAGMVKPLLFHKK
UniProt P34981: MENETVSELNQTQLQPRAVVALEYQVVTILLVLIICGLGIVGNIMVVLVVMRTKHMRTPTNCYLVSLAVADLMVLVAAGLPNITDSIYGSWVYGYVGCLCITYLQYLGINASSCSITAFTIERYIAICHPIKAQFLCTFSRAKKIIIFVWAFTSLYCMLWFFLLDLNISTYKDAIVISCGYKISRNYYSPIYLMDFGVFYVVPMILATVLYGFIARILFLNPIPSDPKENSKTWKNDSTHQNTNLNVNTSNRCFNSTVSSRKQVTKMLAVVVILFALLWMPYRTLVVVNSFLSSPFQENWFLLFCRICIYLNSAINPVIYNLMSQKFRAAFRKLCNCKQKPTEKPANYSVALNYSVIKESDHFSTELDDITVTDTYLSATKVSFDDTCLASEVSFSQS
UniProt O75469: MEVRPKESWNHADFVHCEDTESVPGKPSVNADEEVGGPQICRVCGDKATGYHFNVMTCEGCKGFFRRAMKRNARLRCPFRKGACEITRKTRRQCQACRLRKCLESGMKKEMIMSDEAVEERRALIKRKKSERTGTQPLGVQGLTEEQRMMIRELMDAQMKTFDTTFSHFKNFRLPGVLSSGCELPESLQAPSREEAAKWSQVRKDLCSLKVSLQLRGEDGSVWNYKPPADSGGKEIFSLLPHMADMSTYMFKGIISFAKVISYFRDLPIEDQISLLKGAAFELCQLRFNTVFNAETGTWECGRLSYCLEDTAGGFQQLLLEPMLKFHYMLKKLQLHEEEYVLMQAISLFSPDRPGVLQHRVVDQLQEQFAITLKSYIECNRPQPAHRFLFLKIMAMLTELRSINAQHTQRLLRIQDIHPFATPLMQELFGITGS
UniProt P22303: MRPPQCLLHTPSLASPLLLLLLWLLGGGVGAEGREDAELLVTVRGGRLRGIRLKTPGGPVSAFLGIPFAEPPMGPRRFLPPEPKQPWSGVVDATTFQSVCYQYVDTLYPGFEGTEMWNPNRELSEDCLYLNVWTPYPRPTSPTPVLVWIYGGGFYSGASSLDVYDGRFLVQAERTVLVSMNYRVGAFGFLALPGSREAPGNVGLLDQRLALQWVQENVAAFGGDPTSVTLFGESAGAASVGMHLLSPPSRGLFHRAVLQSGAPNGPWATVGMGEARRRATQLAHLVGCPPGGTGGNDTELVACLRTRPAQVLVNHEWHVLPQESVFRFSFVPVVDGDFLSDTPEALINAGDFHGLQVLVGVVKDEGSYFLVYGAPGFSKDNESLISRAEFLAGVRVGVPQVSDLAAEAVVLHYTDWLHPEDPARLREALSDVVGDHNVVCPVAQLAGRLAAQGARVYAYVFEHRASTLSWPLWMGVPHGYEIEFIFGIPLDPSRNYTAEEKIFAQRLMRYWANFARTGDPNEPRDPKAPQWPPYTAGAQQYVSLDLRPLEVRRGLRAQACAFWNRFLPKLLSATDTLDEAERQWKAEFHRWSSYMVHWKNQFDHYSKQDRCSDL
UniProt P33261, whole entry, looked up: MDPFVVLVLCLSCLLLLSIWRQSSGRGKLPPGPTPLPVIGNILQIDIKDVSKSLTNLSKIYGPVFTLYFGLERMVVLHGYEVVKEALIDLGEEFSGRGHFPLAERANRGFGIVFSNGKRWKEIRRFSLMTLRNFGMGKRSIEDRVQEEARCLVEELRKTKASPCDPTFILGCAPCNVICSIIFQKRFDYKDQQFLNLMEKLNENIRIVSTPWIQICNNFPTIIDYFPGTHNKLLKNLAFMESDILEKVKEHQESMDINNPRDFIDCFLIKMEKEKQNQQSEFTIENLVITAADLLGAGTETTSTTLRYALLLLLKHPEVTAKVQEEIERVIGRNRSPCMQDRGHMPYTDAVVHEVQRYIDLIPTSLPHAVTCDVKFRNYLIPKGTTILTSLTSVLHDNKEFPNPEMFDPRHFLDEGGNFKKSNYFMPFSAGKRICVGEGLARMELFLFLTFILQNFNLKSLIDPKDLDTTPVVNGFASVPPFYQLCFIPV
UniProt P11712, whole entry, looked up: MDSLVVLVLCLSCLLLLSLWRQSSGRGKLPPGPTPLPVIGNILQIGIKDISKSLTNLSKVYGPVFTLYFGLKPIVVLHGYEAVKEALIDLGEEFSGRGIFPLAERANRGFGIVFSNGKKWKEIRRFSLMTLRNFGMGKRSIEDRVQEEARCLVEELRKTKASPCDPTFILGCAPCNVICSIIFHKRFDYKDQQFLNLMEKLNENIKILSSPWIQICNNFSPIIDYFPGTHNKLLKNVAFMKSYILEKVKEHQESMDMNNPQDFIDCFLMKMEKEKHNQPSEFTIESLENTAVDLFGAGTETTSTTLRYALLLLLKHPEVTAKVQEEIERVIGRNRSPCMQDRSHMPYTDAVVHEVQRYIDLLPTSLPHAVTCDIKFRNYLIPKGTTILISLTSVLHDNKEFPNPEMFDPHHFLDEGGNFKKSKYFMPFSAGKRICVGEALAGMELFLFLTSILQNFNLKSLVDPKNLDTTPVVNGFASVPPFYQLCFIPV
UniProt P05177, whole entry, looked up: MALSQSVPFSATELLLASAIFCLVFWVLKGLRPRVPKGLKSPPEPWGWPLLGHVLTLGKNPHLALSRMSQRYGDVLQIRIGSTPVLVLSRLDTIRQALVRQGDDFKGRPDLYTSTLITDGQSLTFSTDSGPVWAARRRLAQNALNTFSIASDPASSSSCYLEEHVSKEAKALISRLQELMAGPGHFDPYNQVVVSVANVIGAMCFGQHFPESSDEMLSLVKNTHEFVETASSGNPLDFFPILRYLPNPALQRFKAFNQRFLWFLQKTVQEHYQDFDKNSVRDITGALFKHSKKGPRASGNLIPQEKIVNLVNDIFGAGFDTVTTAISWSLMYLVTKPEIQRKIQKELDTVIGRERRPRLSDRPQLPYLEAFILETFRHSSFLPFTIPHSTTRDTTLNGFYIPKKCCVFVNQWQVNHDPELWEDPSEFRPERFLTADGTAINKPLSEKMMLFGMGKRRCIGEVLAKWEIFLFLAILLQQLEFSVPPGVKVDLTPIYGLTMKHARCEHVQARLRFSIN
UniProt Q12809: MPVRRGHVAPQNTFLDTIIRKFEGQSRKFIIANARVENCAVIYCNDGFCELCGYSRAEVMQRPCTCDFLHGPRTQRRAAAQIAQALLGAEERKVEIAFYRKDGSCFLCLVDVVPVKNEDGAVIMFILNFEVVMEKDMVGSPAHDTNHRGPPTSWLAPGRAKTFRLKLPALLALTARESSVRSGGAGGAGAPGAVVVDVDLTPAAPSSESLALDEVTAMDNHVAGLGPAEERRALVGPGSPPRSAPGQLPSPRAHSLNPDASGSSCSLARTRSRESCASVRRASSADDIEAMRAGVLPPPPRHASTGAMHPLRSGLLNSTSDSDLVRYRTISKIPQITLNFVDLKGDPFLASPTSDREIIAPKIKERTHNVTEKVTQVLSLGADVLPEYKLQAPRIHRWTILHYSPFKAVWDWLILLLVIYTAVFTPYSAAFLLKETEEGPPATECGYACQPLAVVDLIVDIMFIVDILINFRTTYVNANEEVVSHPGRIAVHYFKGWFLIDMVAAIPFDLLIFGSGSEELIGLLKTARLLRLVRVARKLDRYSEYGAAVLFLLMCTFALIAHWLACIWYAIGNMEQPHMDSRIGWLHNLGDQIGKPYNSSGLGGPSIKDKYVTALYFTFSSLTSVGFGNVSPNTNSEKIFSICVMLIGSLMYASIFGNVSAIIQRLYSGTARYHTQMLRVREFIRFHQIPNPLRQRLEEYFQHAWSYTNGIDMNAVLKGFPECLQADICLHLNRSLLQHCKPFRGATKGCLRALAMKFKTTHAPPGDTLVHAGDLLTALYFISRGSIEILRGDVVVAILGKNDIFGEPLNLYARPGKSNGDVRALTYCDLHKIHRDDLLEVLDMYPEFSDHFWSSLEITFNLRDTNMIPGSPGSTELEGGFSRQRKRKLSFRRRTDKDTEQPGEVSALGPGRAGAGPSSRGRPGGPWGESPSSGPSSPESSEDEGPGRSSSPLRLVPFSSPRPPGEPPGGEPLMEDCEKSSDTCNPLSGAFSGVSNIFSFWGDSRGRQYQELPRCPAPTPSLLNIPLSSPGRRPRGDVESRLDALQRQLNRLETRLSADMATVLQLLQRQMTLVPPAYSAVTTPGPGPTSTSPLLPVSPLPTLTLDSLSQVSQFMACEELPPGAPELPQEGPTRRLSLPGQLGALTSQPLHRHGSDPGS

Test [2] deals with Progesterone receptor (Homo sapiens) (UniProt P06401). In words: qHTS assay to identify small molecule agonists of the progesterone receptor (PR) signaling pathway (AID 1346784; calls by dose curve; also: nearly all actives have a fitted effect of over 30% in size). The note with it: PR-UAS-bla HEK293T, beta-lactamase FRET ratio, 16 h; series mostly up to 92.4 µM. In short, it runs like this: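 Compounds were tested for PR agonism in HEK 293T cells bearing a beta-lactamase gene under UAS control. Treatment lasted 16 hr at 37C; signal came from fluorescence of a FRET substrate.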

For test [3] the target is unchanged. In words: qHTS assay to identify small molecule antagonists of the progesterone receptor (PR) signaling pathway (AID 1346795; active = well fitted inhibition curve with a large enough effect in the signal ratio in the repeat runs, not every such curve was filed as active; the % refers to the signal ratio). The note with it: PR-UAS-bla HEK293T, beta-lactamase FRET ratio, 16 h; series mostly up to 92.4 µM. A digest of the protocol: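 In HEK293T cells bearing the PR-UAS-bla reporter, compound effects on promegestone-driven (1 nM) beta-lactamase expression are assessed after 16 hr using a fluorescent FRET substrate incubated 2 hr at room temperature.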

A short description of test [4]: qHTS assay to identify small molecule antagonists of the progesterone receptor (PR) signaling pathway - cell viability counter screen (AID 1346798). Also: nearly all actives have a fitted effect of over 50% in size. The note with it: PR-UAS-bla HEK293T viability, CellTiter-Glo luminescence, 16 h; series mostly up to 92.4 µM. A digest of the protocol: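 Following a 4 hr attachment, PR-UAS-bla HEK293T cells in charcoal-stripped FBS medium were exposed to compounds with R5020 for 16 hr; CellTiter-Glo was added and luminescence read after 30 min at room temperature.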

A short description of test [5]: qHTS assay to identify small molecule agonists of the progesterone receptor (PR) signaling pathway - cell viability counter screen (AID 1346799; calls by dose curve; also: nearly all actives have a fitted effect of over 45% in size). The note with it: PR-UAS-bla HEK293T viability, CellTiter-Glo luminescence, 16 h; series mostly up to 92.4 µM. A digest of the protocol: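 Here, 3,000 PR-UAS-bla HEK293T cells per well were treated with compounds for 16 hr after a 6 hr preincubation at 37C and 5% CO2; cell viability is the CellTiter-Glo luminescence signal.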

Test [6] is described as follows: qHTS assay to identify small molecule agonists of the TGF-beta/Smad signaling pathway - cell viability counter screen (AID 1346829). Also: top concentration of the series differs between compounds; nearly all actives have a fitted effect of over 45% in size. The note with it: SBE-bla HEK293T viability, CellTiter-Glo luminescence, 5 h; series mostly up to 76.8 µM. A digest of the protocol: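 Compound-treated SBE-bla HEK 293T cells (5 hr, 37 C) were assessed for viability with CellTiter-Glo in parallel with the reporter read.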

Test [7] in a line: qHTS assay to identify small molecule agonists of the TGF-beta/Smad signaling pathway (AID 1346859; active = well fitted activation curve with a large enough effect in the signal ratio in the repeat runs, not every such curve was filed as active; the % refers to the signal ratio). The note with it: SBE-bla HEK293T, TGF-beta/Smad beta-lactamase reporter, 5 h; at 76.8 µM (top of the series) unless noted. A digest of the protocol: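 Each well held 4,000 SBE-bla HEK 293T cells incubated overnight before compound addition; 5 hr later the cleavable FRET substrate went on for 2 hr at room temperature, and fluorescence was read at two emissions.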

Test [8] has as its target Thyrotropin-releasing hormone receptor (Homo sapiens) (UniProt P34981). The test can be described thus: qHTS assay to identify small molecule agonists of the thyrotropin-releasing hormone receptor (TRHR) signaling pathway (AID 1346891; calls by dose curve;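 also: HEK293 cells expressing TRHR with calcium dye readout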). The following applies: TRHR-HEK293 calcium fluorescence, agonist mode; at 57.6 µM (top of the series) unless noted.
The nature of test [9]: Human pregnane X receptor (PXR) small molecule agonists, qHTS cell viability counter screen (AID 1346977). Also: nearly all actives have a fitted effect of over 50% in size. The following applies: PXR-Luc HepG2 viability, CellTiter-Fluor, 24 h; series mostly up to 92.4 µM. A digest of the protocol: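 Tox21 qHTS format; PXR-Luc HepG2, 2,000/well, charcoal-stripped FBS 5%. Cpd exposure 24hr. Read: CellTiter-Fluor fluorescence, multiplexed with luciferase.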

A short description of test [10]: Caspase-3/7 induction in CHO-K1 cells by small molecules, qHTS cell viability counter screen (AID 1346979). Also: nearly all actives have a fitted effect of over 35% in size. The note with it: CellTiter-Fluor fluorescence, 17 h; series mostly up to 92.4 µM. In short, it runs like this:
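CellTiter-Fluor viability check, qHTS format: wild-type CHO-K1, 16hr compound treatment, 1hr reagent incubation, fluorescence read.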

Test [11] is described as follows: Caspase-3/7 induction in CHO-K1 cells by small molecules, qHTS assay (AID 1346980). Also: nearly all actives have a fitted effect of over 15% in size. The following applies: CHO-K1 caspase-3/7 induction, Caspase-Glo luminescence, 17 h; at 92.4 µM (top of the series) unless noted. In short, it runs like this: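 Wild-type cells were seeded at 1,500 per well and settled 5 hr at 37 C, 5% CO2, then exposed to DMSO-dissolved compounds for 17 hr. Caspase-Glo 3/7 reagent was added, and luminescence was read after 30min at room temperature.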

The nature of test [12]: Caspase-3/7 induction in HepG2 cells by small molecules, qHTS cell viability counter screen (AID 1346981). Also: nearly all actives have a fitted effect of over 30% in size. The following applies: CellTiter-Fluor fluorescence, 17 h; series mostly up to 92.4 µM. A digest of the protocol:
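Wild-type HepG2 cells (2,000/well) were allowed to settle for 5 hr at 37 C, 5% CO2, then dosed with compounds in DMSO by pin transfer. After 16 hr at 37 C, CellTiter-Fluor was added and fluorescence read 1 hr later.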

Test [13] has as its target Nuclear receptor subfamily 1 group I member 2 (Homo sapiens) (UniProt O75469). The test can be described thus: Human pregnane X receptor (PXR) small molecule agonists, qHTS assay (AID 1346982). Also: nearly all actives have a fitted effect of over 35% in size. Also: potency is read from the fitted curve at half-maximal effect. The note with it: PXR-Luc HepG2, CYP3A4 luciferase reporter, 24 h; series mostly up to 92.4 µM. In short, it runs like this:
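PXR-Luc HepG2 cells (CYP3A4 promoter-driven luciferase) were seeded in medium with 5% charcoal-stripped FBS, left 5 hr at 37 C, then exposed to compounds in DMSO for 24 hr. Luminescence was read after ONE-Glo addition.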

In test [14] the target is Acetylcholinesterase (Homo sapiens) (UniProt P22303). In words: Acetylcholinesterase (AChE) small molecule antagonists: colormetric cell-based qHTS assay (AID 1347395; calls by dose curve; also: nearly all actives have a fitted effect of over 30% in size). The note with it: SH-SY5Y cells AChE activity, colorimetric (Ellman); series mostly up to 115 µM. A digest of the protocol:
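AChE inhibition read colorimetrically via DTNB–thiocholine in SH-SY5Y cells. Compound 30 min, substrate 90 min, both 37 C.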

The target is the same in test [15]. The test can be described thus: Acetylcholinesterase (AChE) small molecule antagonists: fluorescence cell-based qHTS assay (AID 1347398; calls by dose curve; also: nearly all actives have a fitted effect of over 50% in size). The note with it: SH-SY5Y cells; Potency: AChE activity; series mostly up to 115 µM. A digest of the protocol:
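Human SH-SY5Y cells were plated overnight at 37 C, exposed to compound for 30 min at 37 C, 5% CO2, then given acetylthiocholine plus Thiolite Green for 40 min at room temperature; thiocholine fluorescence (Ex/Em 490/520 nm) reports endogenous AChE activity.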

For test [16], the target named is Cytochrome P450 2C19 (Homo sapiens) (UniProt P33261). In words: Cytochrome P450 Family 2 Subfamily C Member 19 (CYP2C19) small molecule antagonists: luciferase reporter qHTS assay (AID 1671197). Also: nearly all actives have a fitted effect of over 65% in size. The note with it: P450-Glo CYP2C19 enzyme, luciferin luminescence, 1 h; series mostly up to 115 µM. A digest of the protocol: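 P450-Glo CYP2C19 screening system; proluciferin substrate; DMSO compound stocks; 10 min RT preincubation; NADPH regeneration, 1 h at 37C; luciferin detection reagent, 20 min RT; luminescence as RLU.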

The target in test [17] is Cytochrome P450 2C9 (Homo sapiens) (UniProt P11712). In words: Cytochrome P450 Family 2 Subfamily C Member 9 (CYP2C9) small molecule antagonists: luciferase reporter qHTS assay (AID 1671198). Also: nearly all actives have a fitted effect of over 50% in size. The note with it: P450-Glo CYP2C9 enzyme assay, luciferin luminescence; series mostly up to 115 µM. A digest of the protocol:
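CYP2C9 activity was measured with a P450-Glo proluciferin substrate. Enzyme–substrate mix was held with compound for 10 min at room temperature, then NADPH regeneration solution was added for 1 h at 37C. Luciferin product was read as luminescence.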
In general terms: In a reporter assay the amount or activity of a reporter protein is the signal.

Test [18] concerns the target Cytochrome P450 1A2 (Homo sapiens) (UniProt P05177). In words: Cytochrome P450 Family 1 Subfamily A Member 2 (CYP1A2) small molecule antagonists: luciferase reporter qHTS assay (AID 1671199). Also: nearly all actives have a fitted effect of over 50% in size. The following applies: P450-Glo CYP1A2 enzyme, luciferin luminescence, 1 h; series mostly up to 115 µM.
Test [19] concerns the target Voltage-gated inwardly rectifying potassium channel KCNH2 (Homo sapiens) (UniProt Q12809). The test can be described thus: Human Ether-a-go-go-Related Gene (hERG) channel small molecule antagonists: fluorescence cell-based qHTS assay (AID 1671200). The note with it: hERG-U2OS cells, FluxOR thallium flux fluorescence; series mostly up to 76.8 µM. In short, it runs like this:
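Kinetic two-minute fluorescence traces, sampled at 1 s, were collected following thallium stimulus of U2OS cells (1000 per well) that had been cultured overnight at 37 C and loaded with FluxOR II.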

Test [20] addresses Thyrotropin-releasing hormone receptor (Homo sapiens) (UniProt P34981). In words: qHTS assay to identify small molecule antagonists of the thyrotropin-releasing hormone receptor (TRHR) signaling pathway (AID 1346877; active = well fitted inhibition curve with a large enough effect in the repeat runs, not every such curve was filed as active). The following applies: TRHR-HEK293, TRH-induced calcium fluorescence, antagonist mode; series mostly up to 51.3 µM.

Values joined by “and” are separate entries in the source; they are usually repeats but may differ in a detail not shown here. Equal entries are not always repeated. Only a part is listed here, and it is no random draw. Records with an inconclusive call do not appear. Active and inactive are the calls of the source. Unless noted, calls follow the shape of the dose curve; as a rule, active = well fitted curve in the direction sought with a large enough effect in the repeat runs; inconclusive = weak or mixed curves; inactive = no such curve, though single readings can be large; an effect the other way counts as inactive or inconclusive.
% is scaled to controls: 0 for no effect and ±100 for the full control effect.

For `CCOC(=O)Cl`, the Potency result in test [1], in test [2], in test [3], in [4], in test [5] and in [6] was “inactive” throughout. Besides, the Potency entry in test [9], in [10], in test [12], in test [13], in test [14] and in [15] was “inactive” each time. In addition, the Potency entry in [16], in [17], in [18] and in test [19] was “inactive” throughout. Moreover, the activation in [7] was inactive: -1.58%; in test [8], inactive: -0.108%. The caspase-3/7 activation in test [11] is inactive: -0.213%.

Take `O=C(Cl)Oc1ccccc1`: the Potency entry in [1], in [2], in [3], in test [4], in test [5] and in test [6] was “inactive” throughout. Moreover, the Potency entry in [20], in test [9], in test [10], in [12], in test [13] and in [14] was “inactive” in each case. Besides, the Potency result in [15], in test [17], in [18] and in [19] was “inactive” each time. For the same compound, the activation was inactive: 0.655% in test [7] and inactive: -0.302% in test [8]. Besides, the caspase-3/7 activation in test [11] was inactive: -0.715%.

Regarding `CCCCO[P+](=O)OCCCC`, the Potency result in test [1], in [2], in test [3], in test [4], in test [5] and in test [6] was “inactive” in each case. In addition, the Potency entry in test [9], in [10], in test [12], in test [13], in test [14] and in test [15] was “inactive” each time. Also, the Potency result in test [16], in [17], in [18] and in [19] was “inactive” in each case. For the same compound, in [11], the caspase-3/7 activation was inactive: -0.21% and inactive: -1.83%.

On to `CC(C)OP(=S)(OC(C)C)SCCNS(=O)(=O)c1ccccc1`, for which the Potency entry in test [1] and in [6] was “inactive” each time. Besides, in [7], the activation was inactive: 0.567%. In addition, in [11], the caspase-3/7 activation was inactive: -1.23%. The Potency in test [13] is active: 1.54 µM.
